Assay outcomes as filed in PubChem.
Rows were chosen to be rich in hits. Some 2.3% of all compounds tested hit in one or more screens of this group.
MC4R antagonist – human MC4R antagonism in cAMP assay | 360,000 tested, 0.48% active | inhibition, % at 6.5 µM | MC4R-expressing cells, MTII-stimulated cAMP, LANCE TR-FRET | AID 540295;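 active means inhibition above its plate's cutoff, the mean of tested wells on that plate plus 3 SD, cut at about 29% in these data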;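 further: 0% = Melanotan II alone and 100% = Melanotan II plus saturating MCL0020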
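system = U2OS cells with stable human MC4R expression | also added = Melanotan II challenge after compound preincubation | dosing = one concentration, 6.5 µM nominal | incubation = compound 30 min, challenge 1 h, detection 1 h | measured by = TR-FRET with Eu-cAMP and labeled anti-cAMP, 671 nm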
CendR NRP1 mod – NRP-1/CendR interaction modulation; inhibition, % at 25 µM; FAM-RPARPAR peptide binding to NRP-1, fluorescence polarization; 360,000 tested, 0.85% active; AID 602438;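 active means inhibition or corrected inhibition above about 18%, plus a signal ratio from 0.5 to 1.5, limit read from the data, passing the limit was not always enough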
ARFGAP1 inhibitor – inhibitors of rat ARFGAP1; Q62848; Arfgap1-stimulated ARF1 GTP hydrolysis, GDP FP detection; inhibition, % at 16.5 µM; 360,000 tested, 0.26% active; AID 651572;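 active means inhibition above a per-plate limit, mean inhibition of low control wells plus 3 SD, cut at about 25% in these data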;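 further: 0% = DMSO wells with enzyme and 100% = wells lacking Arfgap1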
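material = rat Arfgap1 catalytic domain, aa 1-136 | also added = human ARF1(Δ1-17)-GTP substrate | compound dosing = one concentration, 16.5 µM, DMSO 1.26% | times = GTP hydrolysis reaction 2 h at 25 °C | measured by = FP, GDP Alexa 633 tracer displaced from anti-GDP antibody, 620/688 nm | evaluation = percent inhibition of Arfgap1-stimulated GTP hydrolysis | replication = single well per compound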
ASAP1 GAP inh – inhibitors of human ASAP1 ArfGAP activity; Q9ULH1; ASAP1-stimulated ARF1 GTP hydrolysis, GDP FP detection; inhibition, % at 16.5 µM; 360,000 tested, 0.19% active; AID 624377; in the data active means inhibition above about 25%;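 further: 0% = vehicle with enzyme and substrate and 100% = no enzyme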
MC4R ag barr – human MC4R agonism via beta-arrestin; P32245; U2OS MC4R beta-arrestin complementation, luminescence; percent of melanotan II response, DMSO zero; activation, % at 8.9 µM; 360,000 tested, 0.98% active; AID 540308;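 active means activation above a per-plate cutoff, the mean activation of sample wells on that plate plus 3 SD, cut at about 8% in these data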
Yeast UUG start – yeast start codon fidelity modulation | S. cerevisiae UUG-firefly luciferase reporter, luminescence/redox ratio | activity score, % at 18.7 µM | 0.13% of 350,000 active | AID 602363;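 active means replicate mean at a twofold rise or more, about +100% in these data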;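 further: firefly luciferase made from a UUG start codon reports start codon fidelity; reporter light over untreated wells divided by growth signal over untreated wells; some hits fall short of that in this replicate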
The depositor's hits bear a star; x = not tested or not shown.

SMILES	MC4R antagonist	CendR NRP1 mod	ARFGAP1 inhibitor	ASAP1 GAP inh	MC4R ag barr	Yeast UUG start
CCCCC1=CC2=CC(=O)C(C)(OC(=O)CC)C(=O)C2=CN1Cc1ccccc1 (centres undefined)	-4	6	4	9	-1	6
COC/C=C/C1=CC2=CC(=O)C(C)(OC(=O)c3cnc4ccccc4n3)C(=O)C2=CN1Cc1ccco1 (centres undefined)	8	30*	-3	10	-1	-11
COC/C=C/C1=CC2=CC(=O)C(C)(OC(=O)c3cnc4ccccc4n3)C(=O)C2=CN1C(CO)CO (centres undefined)	-5	37*	8	8	-1	-9
COc1cccc(NC(=O)N(C)C[C@@H]2Oc3ncc(C#Cc4ccc(F)cc4)cc3C(=O)N([C@H](C)CO)C[C@H]2C)c1	x	x	x	x	x	1
O=C(C[C@H]1CC[C@@H]2[C@H](COC[C@H](O)CN2C(=O)C2CCOCC2)O1)NCc1ccncc1	x	x	x	x	x	-11
Cc1ccc(S(=O)(=O)Nc2ccc3c(c2)CC(=O)N([C@@H](C)CO)C[C@@H](C)[C@H](CN(C)S(=O)(=O)c2ccc(Cl)cc2)O3)cc1	x	x	x	x	x	-3
COC/C=C/C1=CC2=CC(=O)C(C)(OC(=O)c3cnc4ccccc4n3)C(=O)C2=CN1CCOC (centres undefined)	-5	32*	-2	20	-1	4
COC/C=C/C1=CC2=CC(=O)C(C)(OC(=O)c3cnc4ccccc4n3)C(=O)C2=CN1CCN1CCOCC1 (centres undefined)	4	8	-3	-7	0	-1
C[C@@H]1CCCCO[C@H](CN(C)C(=O)Nc2ccc(F)cc2)[C@@H](C)CN([C@H](C)CO)C(=O)c2cc(NS(C)(=O)=O)ccc2O1	x	x	x	x	x	1
CCC(=O)Nc1cccc(C(=O)/C=C/c2cccs2)c1	3	27*	-1	-1	2	9
CCC(=O)Nc1cccc(C(=O)/C=C/c2ccccc2)c1	8	-15	-13	-7	-1	-10
O=C(NC(=S)Nc1ccccc1N1CCCC1)c1ccc(F)cc1	4	-3	2	1	4	x
O=C(NC(=S)Nc1ccccc1N1CCCCC1)c1ccccc1	6	-7	4	-1	9.1*	-18
O=C(NC(=O)N1CCCCC1)c1ccccc1	12	26*	-9	-2	-2	x
Cc1ccsc1C(=O)OCC(=O)NC1CCCC1	-1	21*	-6	-6	-1	-15
COc1ccc(-c2cn(CCO)c(-c3ccc(Cl)nc3)n2)cc1	-4	18*	7	16	-1	-13
C[C@@H]1CN([C@H](C)CO)C(=O)c2cc(NS(C)(=O)=O)ccc2O[C@H]1CN(C)S(=O)(=O)c1ccc(F)cc1	x	x	x	x	x	-4
CC1CC(C)CN(CCCSc2ccccc2)C1 (centres undefined)	19	30*	6	8	1	x
C[C@@H]1CCCCO[C@H](CN(C)Cc2ccncc2)[C@@H](C)CN([C@H](C)CO)C(=O)c2cc(NC(=O)Nc3ccc4c(c3)OCO4)ccc2O1	x	x	x	x	x	-3
COc1ccc(-c2coc3cc(OC(C)=O)c(OC)cc3c2=O)cc1	-1	25*	-2	-2	-1	-62
C[C@H]1CN([C@@H](C)CO)S(=O)(=O)c2ccc(C#CC3CC3)cc2O[C@H]1CN(C)Cc1ccccc1F	x	x	x	x	x	4
CC(C)NC(=O)N(C)C[C@H]1Oc2cc(-c3ccccc3F)ccc2S(=O)(=O)N([C@@H](C)CO)C[C@H]1C	x	x	x	x	x	2
CC(C)NC(=O)N(C)C[C@@H]1Oc2ccc(NC(=O)Cc3ccccc3)cc2CC(=O)N([C@@H](C)CO)C[C@@H]1C	x	x	x	x	x	1
O=C(CSc1nnc(CNc2ccc(Cl)cc2)n1Cc1ccccc1)NCc1ccco1	-2	-1	-7	4	0	-6
O=C(CSc1nnc(-c2cccs2)n1Cc1ccccc1)NCc1ccc2c(c1)OCO2	4	24*	2	8	-2	x

The list goes on (two carried over from the part before).
SMILES	MC4R antagonist	CendR NRP1 mod	ARFGAP1 inhibitor	ASAP1 GAP inh	MC4R ag barr	Yeast UUG start
O=C(CSc1nnc(CNc2ccc(Cl)cc2)n1Cc1ccccc1)NCc1ccco1	-2	-1	-7	4	0	-6
O=C(CSc1nnc(-c2cccs2)n1Cc1ccccc1)NCc1ccc2c(c1)OCO2	4	24*	2	8	-2	x
O=C(CSc1nnc(Cc2ccccc2)n1Cc1ccccc1)NCc1ccco1	2	30*	2	1	1	-8
CCCNC(=O)C[C@@H]1CC[C@H]2[C@H](COc3ccc(NC(=O)c4cccc(F)c4)cc3C(=O)N2C)O1	x	x	x	x	x	-1
COc1ccccc1/C=C\C=N\n1c(-c2ccc(Cl)cc2)n[nH]c1=S	8	-5	-8	-8	8.9*	x
COc1ccccc1/C=C/C=N/n1c(-c2ccc(F)cc2)n[nH]c1=S	6	-4	7	-8	2	-24
COC(=O)c1c(C)c2c(C)cc3ccccn3c-2c1C(=O)OC	8	35*	-11	-4	-1	-18
COC(=O)c1cc2c(-c3ccccc3)cc3ccccn3c-2c1C(=O)OC	7	-4	-4	0	-1	2
O=C(C1CCCC1)N1C[C@@H]2[C@H](c3ccccc31)[C@@H](CO)N2C(=O)Nc1cccc(F)c1	x	x	x	x	x	33
CCCCN(C)CC(O)Cn1cc(/C=C/C(=O)c2ccc(C)cc2)c2ccccc21 (centres undefined)	-2	-19	13	8	13*	-19
COc1ccc(-c2ccc3c(=O)cc(-c4ccsc4)oc3c2)cn1	7	-209	36*	26*	3	-14
COc1cc(-c2ccc3oc(-c4ccsc4)cc(=O)c3c2)cc(OC)c1OC	22	11	5	7	1	-14
O=C(C[C@@H]1CC[C@H]2[C@@H](COC[C@@H](O)CN2C(=O)c2cnccn2)O1)NCc1ccccc1	x	x	x	x	x	-4
O=C(c1ccccn1)N1C[C@@H]2[C@H](c3ccccc31)[C@H](CO)N2C(=O)CC1CC1	x	x	x	x	x	-16
C[C@@H]1CN([C@@H](C)CO)C(=O)c2cccc(NC(=O)Nc3ccc4c(c3)OCO4)c2O[C@H]1CN(C)Cc1ccc2c(c1)OCO2	x	x	x	x	x	-3
CN1CCN(c2ccc(NC(=O)c3ccc(-c4ccc(Br)cc4)o3)cc2)CC1	0	-3	7	17	11*	x
O=C(NNC(=O)c1ccccc1Br)c1cccs1	0	25*	-5	8	-2	-14
O=C(CSc1nncs1)NNC(=O)c1ccccc1Br	-3	20*	2	-9	-2	-19
C[C@@H](NC(=O)C[C@@H]1CC[C@H]2[C@@H](COC[C@@H](O)CN2C)O1)c1ccccc1	x	x	x	x	x	-12
Nc1nnnn1/N=C/c1ccccc1OCc1ccc(Cl)cc1Cl	-8	-7	14	6	1	x
Nc1nnnn1/N=C/c1ccccc1OCc1ccc(Cl)cc1	-1	1	6	0	8.3*	-13
CCC(C)[C@H](NC(=O)Nc1cccc(Cl)c1)C(=O)O (some centres undefined)	10	20*	24	8	-3	-12

Random excerpt: two compounds from above.
SMILES	MC4R antagonist	CendR NRP1 mod	ARFGAP1 inhibitor	ASAP1 GAP inh	MC4R ag barr	Yeast UUG start
COc1ccccc1/C=C\C=N\n1c(-c2ccc(Cl)cc2)n[nH]c1=S	8	-5	-8	-8	8.9*	x
C[C@@H]1CCCCO[C@H](CN(C)C(=O)Nc2ccc(F)cc2)[C@@H](C)CN([C@H](C)CO)C(=O)c2cc(NS(C)(=O)=O)ccc2O1	x	x	x	x	x	1

Of the compounds above, 2 contain an NH in an aromatic ring:
SMILES	MC4R antagonist	CendR NRP1 mod	ARFGAP1 inhibitor	ASAP1 GAP inh	MC4R ag barr	Yeast UUG start
COc1ccccc1/C=C\C=N\n1c(-c2ccc(Cl)cc2)n[nH]c1=S	8	-5	-8	-8	8.9*	x
COc1ccccc1/C=C/C=N/n1c(-c2ccc(F)cc2)n[nH]c1=S	6	-4	7	-8	2	-24
